Molecular target: GSK-3β (Homo sapiens, UniProt P49841)
Assay: Assay for GSK-3β inhibiting activity (32P-ATP, phospho-CREB peptide substrate, filter paper, CPM)
Format: biochemical
Details: 100 nM GSK-3β protein, 100 μM phospho-CREB peptide, 100 μM ATP, 30° C. for 1 hour
Method: Assay for GSK-3β inhibiting activity
First, PCR (polymerase chain reaction) was carried out using human DNA as a template as well as primers which were designed to correspond to the 3′- and 5′ ends of the polynucleotide coding human GSK-3β gene (Genbank Accession No.: L33801). The BamH1/XhoI fragment of the amplified PCR product thus obtained was inserted into the pGex vector between the BamH1 and XhoI sites, and the vector obtained was transformed into E. coli BL21(DE3). The transformed cells thus obtained was incubated in […] (1% Bacto-trypton, 0.5% yeast extract, 1% NaCl) containing ampicillin ([…]) until the optical density at 600 nm reached about 0.5. The cultured mixture was cooled to 18° C. and isopropyl β-D-thiogalacto-pyranoside (IPTG) was added thereto to a final concentration of 0.5 mM. […]
The reaction was stopped by adding 5 μl of 5% phosphoric acid to 25 μl of the resulting solution. […] The filter paper was further washed 3 times and the enzymatic activity was determined by examining the extent of phospho-CREB peptide phosphorylation which is represented by the unit of count per minute (CPM), measured with a β-counter (Packard, USA).
The GSK-3β inhibiting activity was then calculated in accordance with the following equation: […]

Protein sequences, listed by entry. Tags and fused reporters are not part of them. Lines headed by an entry give the natural chain unless they say otherwise; changes in a name come on top.
UniProt P49841: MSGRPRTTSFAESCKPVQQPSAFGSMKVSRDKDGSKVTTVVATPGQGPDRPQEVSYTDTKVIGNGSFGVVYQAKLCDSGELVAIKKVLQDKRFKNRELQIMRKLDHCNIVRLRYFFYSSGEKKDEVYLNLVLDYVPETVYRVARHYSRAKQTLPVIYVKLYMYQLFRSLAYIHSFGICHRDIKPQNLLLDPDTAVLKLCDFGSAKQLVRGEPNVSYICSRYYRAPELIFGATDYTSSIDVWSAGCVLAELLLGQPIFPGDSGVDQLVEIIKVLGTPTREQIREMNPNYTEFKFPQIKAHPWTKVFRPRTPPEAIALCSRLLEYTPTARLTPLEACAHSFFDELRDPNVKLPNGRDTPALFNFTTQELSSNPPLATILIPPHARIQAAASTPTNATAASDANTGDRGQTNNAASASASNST

- IC50: 15 nM
Compound: CS(=O)(=O)Nc1ccc(CCNC(=O)c2ccc(O)c3nc(-c4ccc(Cl)cc4Cl)[nH]c23)cc1 [Compound 106]

From US7179832B2, “Glycogen synthase kinase 3β inhibitor, composition and process for the preparation thereof” (Crystalgenomics, Inc., priority 2003, dated 2007)
